One molecule from patent US20250161282A1, “PHARMACEUTICAL PYRIDYL COMPOSITIONS FOR TREATING AND PREVENTING DELAYED GRAFT FUNCTION” (Unicycive Therapeutics, Inc., priority 2023, published 2025) can be followed below.

A short description of this data set: Phase I study Part 1, single ascending doses (SAD), oral fasted. The following applies: 80 mg dose level.

Molecules are shown by their SMILES.

In the case of `CC(NC(=O)OC[n+]1cccc(C(=O)NCCO[N+](=O)[O-])c1)C1CCCCC1` (stereo in doubt) [Compound 8, (S)-1-(((1-cyclohexylethylcarbamoyl)oxy)methyl)-3-((2-(nitroxy)ethyl)carbamoyl)pyridine-1-ium iodide], the safety concerns raised result was “no safety concerns”.
